Details: rabbit, in vivo

^3H-clonidine
Efficiency of iontophoresis without current (0 mA) compared with topic administration: about the same efficiency as the topic administration | Times more active substance in the ciliary body with iontophoresis 2 mA than with topical method: at least three

Source: patent US9238131B2, “Ocular iontophoresis device” (priority 2005, dated 2016)
